## AlphaSeq binding of Ab-95 light chain variants to a spike HR2 peptide

Target: peptide PDVDLGDISGINAS, taken from heptad repeat 2 (HR2) of SARS-CoV-2 spike.

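Phage display of a naive human antibody library on the peptide gave the parent. The library (AAYL52) carries one to three amino acid substitutions per variant, with no insertions or deletions. AlphaSeq pools MATa yeast showing the antibodies with MATalpha yeast showing the peptide. Binding brings cells together so that they mate, and sequencing counts the barcode pairs among the diploids. Scores were corrected for input abundance and mapped to Kd with protein pairs of known affinity run in the same pool. Each pool was mated in three replicate cultures.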

Each scFv is VH, a 15-residue (Gly4Ser)3 linker, VL, as in the parent Ab-95, and differs from it in the CDRs of the light chain only.
VH: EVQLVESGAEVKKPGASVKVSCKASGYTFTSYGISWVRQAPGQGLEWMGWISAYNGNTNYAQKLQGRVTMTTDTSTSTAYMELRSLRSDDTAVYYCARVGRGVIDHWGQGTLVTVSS
VL: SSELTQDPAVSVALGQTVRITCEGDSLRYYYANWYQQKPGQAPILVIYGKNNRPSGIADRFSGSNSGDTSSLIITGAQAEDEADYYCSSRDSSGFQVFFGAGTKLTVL

Changes read parent residue, position, new residue, counted from the first residue of the VL shown. This list gathers variants with a substitution at G94 (VL, numbered from residue 1). Kd is apparent (estimated from mating counts) and averaged on the log scale over replicates with a signal. Smaller is tighter. An entry "no signal" has no value in the source: the pair was not observed among the diploids in any replicate. This suggests poor binding but is not conclusive. As a blank, each scFv also met three strains without target: over library AAYL52, 28% of these pairings were detected, typically at 8.2 µM and seldom below 800 nM. For reference, the parent read 200 nM as the reference entry and 180 nM as a member of this library.

| changes | Kd | detected |
|---|---|---|
| A32W R90K G94F | 12 µM | 1/3 |
| L27H S55K G94E | no signal | 0/3 |
| G24Q P54V G94K | 2.5 µM | 1/3 |
| L27I Y29V G94V | 13 µM | 1/3 |
| G24L S92Q G94E | no signal | 0/3 |
| S88C S93M G94W | 180 nM | 3/3 |
| G24D G94E | 6.8 µM | 3/3 |
| D25K R53T G94L | 370 nM | 3/3 |
| N33D S92D G94L | 9.5 µM | 1/3 |
| N51H S55I G94T | 2.0 µM | 2/3 |
| Y31H S88A G94Y | 140 nM | 3/3 |
| G24E G94T V97W | no signal | 0/3 |
| N51M P54Y G94C | 3.2 µM | 2/3 |
| A32G G94Y V97I | 540 nM | 3/3 |
| D25R S93A G94M | 3.8 µM | 1/3 |
| A32K N51K G94E | 340 µM | 1/3 |
| G94H F95T | 460 nM | 3/3 |
| S88K G94A V97H | 94 µM | 2/3 |
| G24I G94C V97N | no signal | 0/3 |
| Y30S D91P G94W | 150 µM | 1/3 |
| L27Q R28I G94S | 24 µM | 3/3 |
| G24A D91H G94N | 6.0 µM | 2/3 |
| G94E F95Y V97S | 86 µM | 1/3 |
| A32D G94L F95W | 93 µM | 2/3 |
| Y31L N52H G94Y | 510 nM | 2/3 |
| N33Q S93L G94R | 28 µM | 1/3 |
| S26V Y31C G94P | 84 µM | 2/3 |
| L27V G49S G94R | no signal | 0/3 |
| Y31L S92H G94E | 290 nM | 3/3 |
| L27E K50C G94R | no signal | 0/3 |
| G24T G94A Q96S | 28 µM | 3/3 |
| G94L F95P V97N | 7.0 µM | 2/3 |
| S26P Y31D G94R | 120 nM | 3/3 |
| G94K Q96P | 1.1 µM | 3/3 |
| N52Y S55M G94Q | 19 µM | 3/3 |
| G24F A32W G94D | no signal | 0/3 |
| S26I R28M G94C | 760 nM | 1/3 |
| D25I S55H G94Q | 5.4 µM | 3/3 |
| D25T S89Y G94I | 6.5 µM | 2/3 |
| K50T G94E F98P | 28 µM | 1/3 |
| S88M S89T G94N | 150 µM | 2/3 |
| E23V A32R G94K | 8.4 µM | 2/3 |
| G24M G94R Q96P | 10 µM | 3/3 |
| S93C G94Y F98C | 560 nM | 3/3 |
| L27W G94K V97L | 16 µM | 1/3 |
| S26F Y30D G94C | 170 nM | 3/3 |

The first 7 variants above that were never detected:

changes	Kd	detected
L27H S55K G94E	no signal	0/3
G24L S92Q G94E	no signal	0/3
G24E G94T V97W	no signal	0/3
G24I G94C V97N	no signal	0/3
L27V G49S G94R	no signal	0/3
L27E K50C G94R	no signal	0/3
G24F A32W G94D	no signal	0/3

Source: Engelhart et al. 2022 (doi:10.1038/s41597-022-01779-4), MIT Lincoln Laboratory and A-Alpha Bio; data file from the FLAb repository.